The target in this experiment is PLCβ2 (2–803 AA) (UniProt Q00722).

In turn, “geranylgeranylated Rac2 (GG-Rac2) (from UniProt P15153 1-192) (natural protein)” came in with a PLC activity in the cell-free system (release of IP3 from DOPE: PtdIns(4,5)P2/[3H]-PtdIns(4,5)P2 vesicles, 300 nM free Ca2+, 30 °C, 45 min) with GG-Rac2 and GTPγS, against GG-Rac2 and GDP of 3 fold.

The values above are taken from PMC4525138.
